{
  "source": "the OPERA property sets (Mansouri et al. 2018)",
  "details": "experimental values compiled from the literature",
  "data": [
    {"smiles": "CC(C)OP(=O)(F)OC(C)C", "values": [
      {"measurement": "solubility", "value": 83.6, "unit": "mM"}
    ]}
  ]
}
